Ab-14 light chain CDR variants: yeast mating affinities

Antigen: PDVDLGDISGINAS, a 14-residue peptide of the SARS-CoV-2 spike HR2 region.

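Phage display of a naive human antibody library on the peptide gave the parent. The variants were designed computationally from a first round of random CDR variants and then made and measured. Several design methods are mixed in this list. Affinity was read by AlphaSeq, a pooled yeast mating assay with surface-displayed partners. After mating in shaken culture at 30 °C for 16 h, diploids were selected and their barcode pairs sequenced. The ratio of observed to expected reads was calibrated, replicate by replicate, on BCL2-family standards whose Kd was known from biolayer interferometry. The assay was run in six technical replicates.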

Parent: Ab-14, a human scFv built as VH, a (GGGGS)3 linker, VL. Only the CDRs of the light chain vary.
VH: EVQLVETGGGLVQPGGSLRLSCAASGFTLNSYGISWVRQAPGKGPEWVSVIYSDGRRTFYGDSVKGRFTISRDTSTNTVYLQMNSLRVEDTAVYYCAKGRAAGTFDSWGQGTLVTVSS
VL: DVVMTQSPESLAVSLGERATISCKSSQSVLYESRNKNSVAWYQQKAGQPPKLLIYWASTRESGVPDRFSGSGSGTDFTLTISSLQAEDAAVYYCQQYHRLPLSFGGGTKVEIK

The parent's light chain CDRs are KSSQSVLYESRNKNSVA, WASTRES, QQYHRLPLS; each variant's own CDRs replace them letter for letter. Affinities are written as log10 Kd with Kd in nM; a lower number is a better binder. Replicates are averaged; those with no signal do not enter the mean. "no signal" marks a missing value. The strain was present, yet no cells mated with the target were sequenced in any replicate, which points to weak or no binding. A sequence measured in both rounds can read differently, since the two assays cover different ranges. The authors' rule: three or more of the six replicates give a measured affinity, fewer mean a poor binder. Nonspecific signal, from three strains lacking the peptide, appeared in 4% of pairings of all light chain designs, centred on 2.64 (5% of these signals below 1.59); values are not corrected for it. For each scFv, signals with the empty controls are counted beside the result. Of ten entries with the parent sequence, four were seen in most replicates (averages 0.34 to 2.37), three in one and three in none, so single entries are noisy.

| CDR-L1 | CDR-L2 | CDR-L3 | mean log10 Kd (nM) | seen in | empty controls |
|---|---|---|---|---|---|
| KFSQSVLYESRDKNGVA | HASTRES | QQYHRLPLS | -0.31 | 6 of 6 | 0 of 18 |
| QITEEQSMRTEGNWNIA | QAEQKVH | QQYNRLPLA | 0.57 | 6 of 6 | 0 of 18 |
| KSSQSVFYESRNVNSVA | HASTRMS | QAYHRFPLS | 2.45 | 5 of 6 | 3 of 18 |
| KVSQLGLYGQRNANSVA | EASTRED | QQYHRLPLS | -0.28 | 6 of 6 | 0 of 18 |
| ALSQDGFQQSGMRDSIA | HSDQRLA | QQYYHLPLA | 0.19 | 6 of 6 | 1 of 18 |
| KVSQGMWYESRMKNSVA | NASQREE | QQYHRLPLQ | -0.12 | 6 of 6 | 1 of 18 |
| SISGFMKTLSAHRNSVA | DMTNRED | QQYDRLPLS | 0.53 | 6 of 6 | 1 of 18 |
| KFSQWYLYESRTKNSVA | NASTRES | QQYHRLPLS | -0.10 | 6 of 6 | 0 of 18 |
| KYSQSHGGESRNKNSVA | HASLREE | QQYHRLPLS | 0.58 | 6 of 6 | 0 of 18 |
| KLSMMYRYESQEKNSIA | EMSTREE | QSYHRLPLS | 1.65 | 6 of 6 | 0 of 18 |
| NLSAMTAHESVKEKNIA | ERSTREQ | QQYNRLPLS | 0.70 | 6 of 6 | 0 of 18 |
| TIGASLRYGSRNRSNVA | EVSQRLN | QQYDRLPLM | 0.89 | 6 of 6 | 1 of 18 |
| IISQVDAYHSRNKNSIA | DQSTRGS | QQYDRLPLS | no signal | 0 of 6 | 1 of 18 |
| NLSQSWLYESRNKNSVA | NGNTRES | QQYHRLPLS | -0.48 | 6 of 6 | 3 of 18 |
| KSSQSVLYESRNKNSVA | MASTRES | QQYHRLPLS | 1.89 | 6 of 6 | 0 of 18 |
| HVAMECAEEKNKYRNIA | DASMRLA | QQYVRLPLG | -0.08 | 6 of 6 | 3 of 18 |
| KLSQSYLYESRNKNNVA | SASTRES | QQYHRLPLS | -0.46 | 6 of 6 | 1 of 18 |
| KSSQSVLTETSNKNSVA | AASTRES | QQYHRLPLS | 0.23 | 6 of 6 | 1 of 18 |
| TVSQVTGMLQHNKNSVA | DMNTRGS | QQYDRLPLS | 0.21 | 6 of 6 | 1 of 18 |
| LLSGMVEEQLTRQNNIA | EGEFRDA | QQYNRLPLS | 0.58 | 6 of 6 | 0 of 18 |
| KVSYSVEYQERNKNSVA | EASQRES | QQYHRLPLS | 0.29 | 6 of 6 | 0 of 18 |
| KLQQSVGYESRNQNAVA | AASQREE | QQYHRLPLS | 0.46 | 6 of 6 | 1 of 18 |
| KLMYSWPGESRNKNSVA | DASTRES | QQYHRLPLS | -0.06 | 6 of 6 | 0 of 18 |
| KQSHSVDYETRGKNSVA | YASTRES | QQYHRLPLS | 1.53 | 5 of 6 | 0 of 18 |
| KQSQSTLCESRNKNSVA | DASTRES | QQYHRLPLS | 0.33 | 6 of 6 | 4 of 18 |
| KISINQSNYGGMRSAIA | DTNLARM | QQYYHLPLM | 1.66 | 3 of 6 | 0 of 18 |
| KTPQGVLYESRNKNSVA | GASVRES | QQYHRLPLS | -0.33 | 6 of 6 | 1 of 18 |
| KFQQDVLYESRNKNSVA | WASTRES | QQYHRLPLS | 0.82 | 6 of 6 | 0 of 18 |
| KFSQQVLYESRQKNSVA | NASQRFS | QQYHRLPLS | 0.11 | 6 of 6 | 1 of 18 |
| KSSWSVLYESGNKNSVA | HASTRLD | QQYHRLPLS | 0.60 | 6 of 6 | 0 of 18 |
| HVELGVGGVQKYDSSVA | HASQRQE | QQYYQLPLT | 0.44 | 6 of 6 | 0 of 18 |
| KLSQSVLYESRNKNNVA | SASTRSS | QQYHRLPLS | -0.28 | 6 of 6 | 1 of 18 |
| KIQHTHVGNEKKMESIA | QGDQRCQ | QSYDRLPLS | 0.60 | 6 of 6 | 1 of 18 |
| KISQMTRVGITHGNSIA | EEVTRAK | QQYHRLPLA | 2.06 | 6 of 6 | 0 of 18 |
| TISELHNQALGMRNNVA | NNQTRED | QQYDRLPLS | 2.19 | 1 of 6 | 0 of 18 |
| KIEQVWEAFNGHYANVA | NAAEVPE | QQYERLPLA | 1.38 | 6 of 6 | 0 of 18 |
| KSSQSVLDEDRNKNSVA | WASTRES | QQYHRLPLS | 1.70 | 6 of 6 | 1 of 18 |
| KSSQSFLYESRQKNSVA | GASQRES | QQYHRLPLS | 0.35 | 6 of 6 | 0 of 18 |
| KLSQSVLYESRNSNNVA | NASTRES | QQYHRLPLS | -0.09 | 6 of 6 | 1 of 18 |
| KVEQSHLYESRNGNSVA | NASTREH | QQYHRLPLS | 0.64 | 6 of 6 | 0 of 18 |
| KVSQSHWGESRNKNSVA | HASLREV | QQYHRLPLS | 0.71 | 6 of 6 | 5 of 18 |
| KLTSVTGTEKVHGNNVA | EMETREK | QQYNRLPLA | 0.73 | 6 of 6 | 0 of 18 |
| SLMQSVLYESRNKNSVA | HASDRED | QQYHRLPLS | 0.57 | 6 of 6 | 0 of 18 |
| KSQQSQEYESRNKNSVA | HASTRES | QQYHRLPLS | 0.26 | 6 of 6 | 0 of 18 |
| MISDLTMYGSRNKHSVA | DLSTRGS | QQYHRLPLS | 0.09 | 6 of 6 | 0 of 18 |
| KLTHVTFVLDRQKYSIA | DSERKAE | QQYNRLPLT | no signal | 0 of 6 | 1 of 18 |
| KSYQSVLYESRDKNSVA | HASTRED | QQYHRLPLS | 1.38 | 6 of 6 | 0 of 18 |
| KVSPSWLGEDRNCNAVA | QASCRES | QQYHRLPLS | 0.74 | 6 of 6 | 0 of 18 |
| KLMQSMEYESRNSNSVA | QASTREH | QQYHRLPLM | 1.96 | 4 of 6 | 0 of 18 |
| TLSQMSGVEAVKHNNVA | ENSTREK | QQYDRLPLA | 1.41 | 5 of 6 | 0 of 18 |
| KSSVSVVYFSRNKNSVA | DASTRES | QQYHRLPLS | -0.06 | 6 of 6 | 2 of 18 |
| KLSSTSGMEHVSRNSVA | ELVTRMS | QQYNRLPLS | 0.35 | 6 of 6 | 2 of 18 |
| KLDMNELGQSQNSSCVA | GSAQKCS | QQYSRLPLS | 1.69 | 6 of 6 | 2 of 18 |
| KLGATYEGEKRNRQSVA | HNSMREN | QQYDRLPLI | 1.57 | 6 of 6 | 5 of 18 |
| KVSQSVLFQSRNKNSVA | DASTRES | QQYHRLPLS | -0.32 | 6 of 6 | 0 of 18 |
| KIELDLTRYNAGYAAIA | HETMKAQ | QQYSRLPLI | 1.16 | 6 of 6 | 1 of 18 |
| KSSQSVLYESRNKNHVA | WASTREE | QQYHRLPLS | no signal | 0 of 6 | 0 of 18 |
| KSSQSVLYESRNKNSVA | SASTRVS | QQYHRLPLS | 1.38 | 6 of 6 | 1 of 18 |
| KLQQSSLYESRNKNSVA | NASTRLS | QQYHRLPLS | 0.18 | 6 of 6 | 1 of 18 |
| KVSEMMAFLSSNRNSVA | DNSTRGA | QQYHRLPLS | 1.61 | 6 of 6 | 0 of 18 |
| KVLQSVVYEGRNKNSVA | HASTRES | QQYHRLPLS | 0.23 | 6 of 6 | 1 of 18 |
| KLSQSMLYESRNSNSVA | DASTRES | QQYHRLPLS | -0.37 | 6 of 6 | 2 of 18 |
| HSSQSRLYESRNKNSVA | SCSTRES | QQYHRLPLS | no signal | 0 of 6 | 0 of 18 |
| KWSQSVLFQSRNKNSVA | DASTRES | QQYHRLPLS | 0.07 | 6 of 6 | 1 of 18 |

Picked from the list: the 7 lowest averages where every replicate gave a value.

{"CDR-L1": "NLSQSWLYESRNKNSVA", "CDR-L2": "NGNTRES", "CDR-L3": "QQYHRLPLS", "mean log10 Kd (nM)": "-0.48", "seen in": "6 of 6", "empty controls": "3 of 18"}
{"CDR-L1": "KLSQSYLYESRNKNNVA", "CDR-L2": "SASTRES", "CDR-L3": "QQYHRLPLS", "mean log10 Kd (nM)": "-0.46", "seen in": "6 of 6", "empty controls": "1 of 18"}
{"CDR-L1": "KLSQSMLYESRNSNSVA", "CDR-L2": "DASTRES", "CDR-L3": "QQYHRLPLS", "mean log10 Kd (nM)": "-0.37", "seen in": "6 of 6", "empty controls": "2 of 18"}
{"CDR-L1": "KTPQGVLYESRNKNSVA", "CDR-L2": "GASVRES", "CDR-L3": "QQYHRLPLS", "mean log10 Kd (nM)": "-0.33", "seen in": "6 of 6", "empty controls": "1 of 18"}
{"CDR-L1": "KVSQSVLFQSRNKNSVA", "CDR-L2": "DASTRES", "CDR-L3": "QQYHRLPLS", "mean log10 Kd (nM)": "-0.32", "seen in": "6 of 6", "empty controls": "0 of 18"}
{"CDR-L1": "KFSQSVLYESRDKNGVA", "CDR-L2": "HASTRES", "CDR-L3": "QQYHRLPLS", "mean log10 Kd (nM)": "-0.31", "seen in": "6 of 6", "empty controls": "0 of 18"}
{"CDR-L1": "KLSQSVLYESRNKNNVA", "CDR-L2": "SASTRSS", "CDR-L3": "QQYHRLPLS", "mean log10 Kd (nM)": "-0.28", "seen in": "6 of 6", "empty controls": "1 of 18"}

The measurements come from Li et al. 2023 (doi:10.1038/s41467-023-39022-2) through the FLAb antibody collection.